Test results taken from PubChem BioAssay AID720643 (The Scripps Research Institute Molecular Screening Center, 2013).
The source made the active and inactive calls.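 Rule for the calls: active = EC50 of 10 µM or lower; inactive = EC50 above 10 µM.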

Protein sequences, listed by entry. Tags and fused reporters are not part of them.
UniProt P35363, whole entry, looked up: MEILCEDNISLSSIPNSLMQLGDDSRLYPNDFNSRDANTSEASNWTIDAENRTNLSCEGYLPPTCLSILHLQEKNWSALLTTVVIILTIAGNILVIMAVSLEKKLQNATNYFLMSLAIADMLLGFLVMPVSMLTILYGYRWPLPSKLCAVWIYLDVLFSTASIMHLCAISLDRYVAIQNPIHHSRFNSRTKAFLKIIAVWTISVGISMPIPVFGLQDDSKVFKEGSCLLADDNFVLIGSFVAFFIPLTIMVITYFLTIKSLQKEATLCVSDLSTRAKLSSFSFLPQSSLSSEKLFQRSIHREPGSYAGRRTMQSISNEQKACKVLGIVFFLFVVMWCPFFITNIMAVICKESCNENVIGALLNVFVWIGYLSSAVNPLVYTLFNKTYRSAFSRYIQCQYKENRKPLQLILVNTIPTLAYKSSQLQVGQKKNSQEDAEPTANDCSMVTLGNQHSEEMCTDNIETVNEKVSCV

Biological target: 5-hydroxytryptamine receptor 2A (Mus musculus) (UniProt P35363)
Experiment: mouse HTR2A agonist potency, beta-arrestin, late-stage follow-up, cell-based, luminescence, CHO-K1, powder samples, dose response (AID 720643)
Settings: CHO-K1 mHTR2A beta-arrestin PathHunter luminescence

EC50: inactive: > 76.1 µM
SMILES: Nc1c2c(nc3ccccc13)CCCC2
